Results on 1 substance are retold here after patent publication US20230312709A1.

Test [1] addresses human RBC (human) (UniProt Q08722). Briefly: flow cytometry on human red blood cells, PE goat anti-human IgG Fc secondary, MFI [lower left panel]. A general note: A flow cytometer gives signals particle by particle.
Test [2] has the same target. Briefly: flow cytometry on human red blood cells, PE goat anti-human IgG Fc secondary, MFI [upper left panel].
The target is the same in test [3]. Briefly: flow cytometry on human red blood cells, PE goat anti-human IgG Fc secondary, MFI [upper right panel].
The target of test [4] is human CD47 on CCRF-CEM cells (human) (UniProt Q08722). Briefly: flow cytometry competition on CCRF-CEM cells; blocked ligand hSIRPα-mFC, detected with PE goat anti-mouse IgG Fc.
Test [5] deals with human RBC (human) (UniProt Q08722). The test can be described thus: flow cytometry on human red blood cells, PE goat anti-human IgG Fc secondary, MFI [lower right panel].
Test [6] has as its target human CD47 on CCRF-CEM cells (human) (UniProt Q08722). Briefly: flow cytometry on CCRF-CEM cells, MFI curve.

By EC50 (read off the curve) is commonly meant the concentration at which the effect is half-maximal. Read a low EC50 (read off the curve) as an effect from little substance. The term EC50 denotes the concentration that produces a half-maximal response. Read a high EC50 as a less potent agent. Take Hu5F9-G4 (antibody): the concentration giving a half-maximal response (EC50 (read off the curve)) in test [1] came to 0.09 µg/mL; in test [2], 0.07 µg/mL; in test [3] it was 0.09 µg/mL; in test [5], 0.09 µg/mL. The same substance had an IC50 (read off the curve) in test [4] of 0.5 nM. In test [6], this substance displayed a half-maximal effective concentration (EC50) of 0.729 nM.
